Test [1] concerns histamine-induced bronchospasm. The experiment in a line: Bronchospasm by inhalation of a histamine solution. The class given is in vivo, guinea-pig. The conditions noted are these: Cavia porcellus, po; guinea-pigs, p.o.; comparative test; read-out: Bronchospasm by oral administration ED50. As for the experimental part: J--Bronchospasm by inhalation of a histamine solution
Guinea-pigs are placed in a closed chamber into which histamine is introduced as an aerosol, and only those which show very distinct signs of asphyxia within four minutes are selected.
The substance to be studied is administered to groups of guinea-pigs thirty minutes before a further period in the chamber in order to check the resistance to histamine. A guinea-pig is considered to be protected if it resists the histamine aerosol for ten minutes without showing signs of asphyxia.
A 50% effective dose is calculated from the results obtained.

The subject of test [2] is lethal dose of histamine (histaminic shock). The experiment in a line: Antihistaminic activity (protection from a lethal dose of histamine, histaminic shock). The class given is in vivo, guinea-pig. The conditions noted are these: Cavia porcellus, po; guinea-pigs, p.o.; comparative test; read-out: Histaminic shock by oral administration ED50. As for the experimental part:
K--Antihistaminic activity
This test assesses the dose which protects fifty per cent of guinea-pigs from a lethal dose of histamine.
The product is administered thirty minutes before the intravenous injection of histamine hydrochloride (1 mg/kg).
The 50% effective dose is calculated from the results obtained.

The structures appear in SMILES notation.

This note sets out measurements from patent US4983614A, “Benzhydryloxyethylpiperidine derivatives, process for their preparation and pharmaceutical compositions, in which they are present” (priority 1986, dated 1991).

Turning to `CC(C)(C)c1ccc(C(O)CCCN2CCC(C(O)(c3ccccc3)c3ccccc3)CC2)cc1` (centres unmarked) [Terfenadine], the results for the ED50 in test [1] and in test [2] were 1.6 mg/kg and 2.58 mg/kg, respectively.
